Measurements from ChEMBL document CHEMBL2384966, “Probes for narcotic receptor mediated phenomena. 47. Novel C4a- and N-substituted-1,2,3,4,4a,9a-hexahydrobenzofuro[2,3-c]pyridin-6-ols” (Bioorg Med Chem, 2013).

Sequences of proteins named here, by UniProt entry; tags and fusion partners are left off. A change or cut given only in a name is not applied to a line headed by its entry.
UniProt P41145: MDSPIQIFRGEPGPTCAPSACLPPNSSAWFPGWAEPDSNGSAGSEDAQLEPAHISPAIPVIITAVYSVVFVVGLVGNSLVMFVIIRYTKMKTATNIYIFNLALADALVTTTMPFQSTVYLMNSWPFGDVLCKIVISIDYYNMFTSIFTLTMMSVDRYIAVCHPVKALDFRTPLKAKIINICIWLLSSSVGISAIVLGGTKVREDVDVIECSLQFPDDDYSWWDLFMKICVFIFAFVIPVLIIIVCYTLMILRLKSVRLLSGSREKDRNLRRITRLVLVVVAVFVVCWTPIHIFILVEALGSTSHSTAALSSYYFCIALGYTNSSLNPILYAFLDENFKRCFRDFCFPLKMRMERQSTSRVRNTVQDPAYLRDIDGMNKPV
UniProt P41143, whole entry: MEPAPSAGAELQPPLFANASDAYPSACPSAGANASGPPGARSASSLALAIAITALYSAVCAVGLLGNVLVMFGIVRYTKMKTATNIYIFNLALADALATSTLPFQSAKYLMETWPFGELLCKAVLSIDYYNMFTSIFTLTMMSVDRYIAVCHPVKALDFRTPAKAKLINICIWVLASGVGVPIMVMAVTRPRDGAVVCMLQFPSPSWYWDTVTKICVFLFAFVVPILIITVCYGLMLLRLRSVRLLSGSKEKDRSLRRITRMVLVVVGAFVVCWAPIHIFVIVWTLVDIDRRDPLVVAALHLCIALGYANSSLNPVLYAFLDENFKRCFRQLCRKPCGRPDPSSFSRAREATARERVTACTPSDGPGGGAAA
UniProt P35372, whole entry: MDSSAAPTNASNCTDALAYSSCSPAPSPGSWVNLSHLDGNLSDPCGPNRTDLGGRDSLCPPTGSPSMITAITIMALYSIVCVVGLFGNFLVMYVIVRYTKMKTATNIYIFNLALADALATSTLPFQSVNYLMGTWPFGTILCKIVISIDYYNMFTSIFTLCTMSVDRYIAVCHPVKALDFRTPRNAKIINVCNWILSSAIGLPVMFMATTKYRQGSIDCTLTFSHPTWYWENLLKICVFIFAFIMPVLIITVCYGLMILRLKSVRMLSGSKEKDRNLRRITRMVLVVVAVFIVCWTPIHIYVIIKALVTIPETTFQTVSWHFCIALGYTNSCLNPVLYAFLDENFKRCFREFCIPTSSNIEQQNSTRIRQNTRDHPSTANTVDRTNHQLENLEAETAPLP

Columns and labels:
[1] = target: Kappa-type opioid receptor (Homo sapiens, UniProt P41145); details: CHO
Homo sapiens [2] = species: Homo sapiens; test: Selectivity ratio of Ki for human recombinant kappa opioid receptor to Ki for human recombinant delta opioid receptor
Homo sapiens [3] = species: Homo sapiens; test: Selectivity ratio of Ki for human recombinant mu opioid receptor to Ki for human recombinant delta opioid receptor
[4] = target: T1, Delta-type opioid receptor (Homo sapiens, UniProt P41143); test: Antagonist activity at human recombinant delta opioid receptor expressed in mouse/rat NG108-15 cell membranes assessed as inhibition of SNC80-induced [35S]GTPgammaS binding by liquid scintillation counting analysis; assay type: functional
Mu-type opioid receptor = Mu-type opioid receptor (Homo sapiens, UniProt P35372); details: CHO
Homo sapiens [5] = species: Homo sapiens; test: Selectivity ratio of Ki for human recombinant kappa opioid receptor to Ki for human recombinant mu opioid receptor
[6] = target: T1, Delta-type opioid receptor; test: Partial agonist activity at human recombinant delta opioid receptor expressed in mouse/rat NG108-15 cell membranes assessed as stimulation of [35S]GTPgammaS binding after 3 hrs by liquid scintillation counting analysis; assay type: functional
Procedure, shortened: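 DOR function measured in NG108-15 neuroblastoma-glioma membranes. Incubated with drug, GDP and 50 pM final [35S]GTPγS in 50 mM Tris-HCl pH 7.4, 100 mM NaCl, 10 mM MgCl2, 1 mM EDTA, 1 mM DTT, 0.1% BSA, 3 h at 25 °C. Unlabelled GTPγS defined nonspecific binding. Bound label collected on GF/B filters and scintillation counted; ED50 and Emax reported.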

Oc1ccc2c(c1)[C@]1(CCc3ccccc3)CCN(CC3CC3)C[C@@H]1O2 (relative stereo)
ED50 [1]: 135 nM
Ratio Ki (Homo sapiens [2]): 0.7
Ratio Ki (Homo sapiens [3]): 0.2
Ke [4]: 64 nM
ED50 (Mu-type opioid receptor): inactive
Ratio Ki (Homo sapiens [5]): 3

Oc1ccc2c(c1)[C@]1(CCc3ccccc3)CCN(CCc3ccc(C(F)(F)F)cc3)C[C@@H]1O2 (relative stereo)
ED50 (Mu-type opioid receptor): 2150 nM
ED50 [6]: 1250 nM

Oc1ccc2c(c1)[C@]1(CCc3ccccc3)CCN(CCc3ccc(F)cc3)C[C@@H]1O2 (relative stereo)
ED50 (Mu-type opioid receptor): 1190 nM
ED50 [6]: 350 nM

Oc1ccc2c(c1)[C@]1(CCc3ccccc3)CCN(CCc3cccc(C(F)(F)F)c3)C[C@@H]1O2 (relative stereo)
ED50 (Mu-type opioid receptor): inactive

Oc1ccc2c(c1)[C@]1(CCc3ccccc3)CCN(CCc3ccccc3)C[C@@H]1O2 (relative stereo)
ED50 (Mu-type opioid receptor): 567 nM
ED50 [6]: 395 nM

Oc1ccc2c(c1)[C@]1(CCc3ccccc3)CCN(CCc3ccccc3F)C[C@@H]1O2 (relative stereo)
ED50 (Mu-type opioid receptor): 248 nM

Calls of active or inactive are those of the source. The calls are words filed in the database; no cut-off is given here.
